The target in this assay is PSMA (Homo sapiens (Human), UniProt Q04609). Put plainly: PSMA binding affinity. The note with it: Table 6, given as range.

Protein sequences, listed by entry. Tags and fused reporters are not part of them.
UniProt Q04609, whole entry: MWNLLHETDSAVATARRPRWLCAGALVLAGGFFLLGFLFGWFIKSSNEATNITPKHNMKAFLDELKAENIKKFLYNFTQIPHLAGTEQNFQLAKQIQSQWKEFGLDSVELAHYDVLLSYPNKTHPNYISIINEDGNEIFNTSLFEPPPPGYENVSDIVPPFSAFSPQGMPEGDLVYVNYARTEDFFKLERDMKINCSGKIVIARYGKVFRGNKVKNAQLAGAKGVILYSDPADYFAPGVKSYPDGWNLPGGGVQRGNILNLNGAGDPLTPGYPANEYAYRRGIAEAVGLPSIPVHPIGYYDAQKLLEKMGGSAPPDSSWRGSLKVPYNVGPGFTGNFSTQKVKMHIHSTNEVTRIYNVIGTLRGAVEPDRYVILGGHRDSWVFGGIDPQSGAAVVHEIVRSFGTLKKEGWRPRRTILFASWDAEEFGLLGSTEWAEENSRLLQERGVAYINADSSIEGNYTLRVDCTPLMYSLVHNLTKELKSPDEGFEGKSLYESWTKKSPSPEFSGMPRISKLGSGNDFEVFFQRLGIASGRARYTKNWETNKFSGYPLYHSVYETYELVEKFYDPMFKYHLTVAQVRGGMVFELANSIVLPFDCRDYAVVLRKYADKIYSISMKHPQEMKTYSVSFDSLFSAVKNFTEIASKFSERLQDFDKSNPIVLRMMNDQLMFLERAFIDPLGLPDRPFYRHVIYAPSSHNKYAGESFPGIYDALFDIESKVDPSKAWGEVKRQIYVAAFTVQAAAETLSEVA

Regarding `O=C(O)CC[C@H](NC(=O)N[C@@H](CCCCN(Cc1ccc(Br)cc1)C(=O)[C@H]1CC[C@H](CNC(=O)CCC(C(=O)O)N2CCN(CC(=O)O)CCN(CC(=O)O)CCN(CC(=O)O)CC2)CC1)C(=O)O)C(=O)O` (stereo partly shown), the Ki (usually the dissociation constant of the complex between target and ligand, obtained from inhibition or displacement) fell in the range of 0.43 to 1.2 nM.

(Values after US11478558B2, “Prostate-specific membrane antigen targeted high-affinity agents for endoradiotherapy of prostate cancer” (The Johns Hopkins University, priority 2017, dated 2022).)
